Measured values from patent US11612627B2, “Method for preventing or treating thrombosis” (ANDONG NATIONAL UNIVERSITY INDUSTRY-ACADEMIC COOPERATION …, priority 2020, dated 2023).

Molecular target: human thrombin (Homo sapiens, UniProt P00734)
Test: Thrombin time (plasma clotting)
Conditions: clot time sample/clot time DMSO, 3-carene section Table 3

SMILES	Blood coagulation inhibition activity: Thrombin Time (0.5 mg/ml)	Blood coagulation inhibition activity: Thrombin Time (0.75 mg/ml)	Blood coagulation inhibition activity: Thrombin Time (1.0 mg/ml)	Blood coagulation inhibition activity: Thrombin Time (1.0 mg/ml, listed as 3-carene)
CC1=CCC2C(C1)C2(C)C (centres unmarked) [Extract 3-Carene, 3-carene]	1.56 ± 0.01	2.14 ± 0.13	2.55 ± 0.00	2.55
O=C(O)c1ccc(O)cc1 [4-Hydroxybenzoic acid, 4-hydroxybenzoic acid]	1.34 ± 0.04	–	–	–
